Experimental data published in ChEMBL document CHEMBL1122012, “Adenosine receptors: targets for future drugs” (J Med Chem, 1982).

The chains behind the UniProt entries cited, without tags or fusion partners. Where a name states a change or a piece, a line headed by the entry shows the natural chain unless it says otherwise.
UniProt P29276: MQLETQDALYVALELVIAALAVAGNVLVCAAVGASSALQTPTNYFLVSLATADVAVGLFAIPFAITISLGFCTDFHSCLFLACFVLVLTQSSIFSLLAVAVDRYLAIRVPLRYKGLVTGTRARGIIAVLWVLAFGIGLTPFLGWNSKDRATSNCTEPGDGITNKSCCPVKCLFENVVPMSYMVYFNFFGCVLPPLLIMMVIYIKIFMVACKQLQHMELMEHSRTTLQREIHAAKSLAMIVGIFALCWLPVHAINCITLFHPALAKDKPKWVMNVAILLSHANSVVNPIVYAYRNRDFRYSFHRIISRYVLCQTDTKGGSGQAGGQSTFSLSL
UniProt P25099: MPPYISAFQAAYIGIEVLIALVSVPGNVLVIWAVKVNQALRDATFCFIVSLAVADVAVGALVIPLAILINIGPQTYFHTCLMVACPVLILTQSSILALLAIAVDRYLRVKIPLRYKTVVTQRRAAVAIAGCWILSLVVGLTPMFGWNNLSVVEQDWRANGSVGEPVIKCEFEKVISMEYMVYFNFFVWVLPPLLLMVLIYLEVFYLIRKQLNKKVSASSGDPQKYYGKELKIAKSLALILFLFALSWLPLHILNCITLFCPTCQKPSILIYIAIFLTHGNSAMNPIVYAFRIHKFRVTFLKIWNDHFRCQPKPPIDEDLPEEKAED
UniProt P30543: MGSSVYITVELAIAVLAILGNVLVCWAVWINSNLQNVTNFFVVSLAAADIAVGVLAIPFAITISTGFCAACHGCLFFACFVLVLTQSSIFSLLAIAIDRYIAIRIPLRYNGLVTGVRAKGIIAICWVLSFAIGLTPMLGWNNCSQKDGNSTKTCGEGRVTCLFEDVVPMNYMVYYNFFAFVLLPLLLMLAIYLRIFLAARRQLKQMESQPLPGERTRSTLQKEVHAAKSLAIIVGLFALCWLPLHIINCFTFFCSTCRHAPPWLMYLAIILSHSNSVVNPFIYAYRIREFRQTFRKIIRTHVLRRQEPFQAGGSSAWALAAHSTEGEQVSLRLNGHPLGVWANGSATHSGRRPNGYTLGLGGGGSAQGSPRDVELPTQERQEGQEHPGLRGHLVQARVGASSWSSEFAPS
UniProt P28647: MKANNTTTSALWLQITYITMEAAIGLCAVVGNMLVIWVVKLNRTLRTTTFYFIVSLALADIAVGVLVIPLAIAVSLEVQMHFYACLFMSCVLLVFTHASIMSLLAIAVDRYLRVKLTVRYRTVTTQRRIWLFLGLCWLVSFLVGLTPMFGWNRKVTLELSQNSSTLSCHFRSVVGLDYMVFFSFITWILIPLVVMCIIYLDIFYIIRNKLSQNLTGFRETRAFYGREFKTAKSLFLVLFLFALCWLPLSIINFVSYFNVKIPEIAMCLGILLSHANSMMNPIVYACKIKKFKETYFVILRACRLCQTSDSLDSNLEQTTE

Columns and labels:
Adenosine receptor [1] = molecular target: T1, Adenosine receptor (Rattus norvegicus, UniProt P29276+P25099+P30543+P28647); test: Antagonist binding of 2-chloro-[3H]-adenosine in rat brain; type: functional, tissue-based
Adenosine receptor [2] = molecular target: T1, Adenosine receptor; type: functional
Adenosine receptor [3] = molecular target: T1, Adenosine receptor; type: functional; remark: listed apart in the source
Adenosine receptor [4] = molecular target: T1, Adenosine receptor

Ki (Adenosine receptor [1]): 1.3 nM
Ki (Adenosine receptor [2]): 10 nM
Ki (Adenosine receptor [3]): 920 nM
Ki (Adenosine receptor [4]): 9 nM
SMILES: Nc1nc(Cl)nc2c1ncn2[C@@H]1O[C@H](CO)[C@@H](O)[C@H]1O
